Measurements reported in ChEMBL document CHEMBL1147643 (J Med Chem, 2006).
Active and inactive are the calls of the source. No cut-off for these calls is given here.

Protein sequences, listed by entry. Tags and fused reporters are not part of them.
UniProt P0DMS8, whole entry: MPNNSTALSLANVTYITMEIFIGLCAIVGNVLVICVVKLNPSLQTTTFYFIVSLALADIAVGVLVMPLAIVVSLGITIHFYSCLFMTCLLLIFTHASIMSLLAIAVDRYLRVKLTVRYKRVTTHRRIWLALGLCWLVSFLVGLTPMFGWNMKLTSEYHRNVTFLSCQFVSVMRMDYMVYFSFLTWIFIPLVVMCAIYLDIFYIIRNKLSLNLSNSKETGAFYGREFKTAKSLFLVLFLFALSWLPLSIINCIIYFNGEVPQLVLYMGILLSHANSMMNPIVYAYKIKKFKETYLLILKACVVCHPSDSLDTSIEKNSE

How the values were obtained:
Adenosine receptor A3 [1] = target: T1, Adenosine receptor A3 (Homo sapiens, UniProt P0DMS8); experiment: Protection against stimulated ischemia in chick cardiomyocytes transfected with human adenosine A3 receptor H272E mutant by activation of PLD pathway at 100 uM; format: functional, cell-based
Adenosine receptor A3 [2] = target: T1, Adenosine receptor A3; experiment: Protection against stimulated ischemia in chick cardiomyocytes transfected with human adenosine A3 receptor measured as percent of killed cells; format: functional, cell-based

Activity (Adenosine receptor A3 [1]): inactive
SMILES: Nc1ncnc2c1ncn2[C@@H]1O[C@H](CO)[C@@H](O)[C@H]1O
Activity (Adenosine receptor A3 [2]): 10%
